# Laboratory results reported in US8969312B2, “Low side effect pharmaceutical composition containing antituberculosis drugs” (priority 2011, dated 2015).
# By UniProt entry, the sequences of proteins in these tests, tags left out. Where a name states a change or a piece, a line headed by the entry shows the natural chain unless it says otherwise.
# UniProt P05181: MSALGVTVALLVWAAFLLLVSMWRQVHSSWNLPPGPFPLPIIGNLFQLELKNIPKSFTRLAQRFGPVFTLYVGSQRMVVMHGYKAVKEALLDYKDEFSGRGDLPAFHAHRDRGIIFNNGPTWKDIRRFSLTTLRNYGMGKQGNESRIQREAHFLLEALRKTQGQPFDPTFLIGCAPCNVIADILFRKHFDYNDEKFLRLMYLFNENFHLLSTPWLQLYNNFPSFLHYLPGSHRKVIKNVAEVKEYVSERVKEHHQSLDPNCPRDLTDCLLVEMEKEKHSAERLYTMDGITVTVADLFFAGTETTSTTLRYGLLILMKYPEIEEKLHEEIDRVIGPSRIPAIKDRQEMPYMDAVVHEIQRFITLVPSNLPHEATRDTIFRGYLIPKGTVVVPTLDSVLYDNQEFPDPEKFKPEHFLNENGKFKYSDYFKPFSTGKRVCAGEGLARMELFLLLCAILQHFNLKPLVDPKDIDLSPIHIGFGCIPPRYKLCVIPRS
# Target: human liver microsomal cytochrome P450 2E1 (CYP2E1) (Homo sapiens, UniProt P05181)
# Assay: Human liver microsomal CYP2E1, chlorzoxazone 6-hydroxylation;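 note: chlorzoxazone added as substrate, 6-hydroxychlorzoxazone formation quantified by LC/MS/MS after 30 min at 37 °C with NADP+ regenerating system, compared against solvent control without test sample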
# Details: for Minimum Effective Dose: Table 7
Compound,Minimum Effective Dose [mg],Inhibition of CYP 2E1 (0.042% (w/v)) [%],Inhibition of CYP 2E1 (0.08% (w/v)) [%],Inhibition of CYP 2E1 (0.167% (w/v)) [%]
CCCCCCCCCCCCCCCCCC(=O)OCC(O)CO (stereo not shown) [Glycerrin monostearate],158,–,–,–
Magnesium stearate,29,–,–,–
Span 60,1260,12.4 ± 2.3,13.9 ± 0.7,17.4 ± 0.9
Span 80,1260,5.9 ± 0.3,6.2 ± 0.4,10.1 ± 2.1
